target: hROMK (hKir1.1) (Homo sapiens (Human), UniProt P48048); test: Thallium Flux Assay (ROMK channel functional thallium flux, FLIPR-Tetra); type: cell-based; conditions: HEK293 cells stably expressing hROMK (hKir1.1)

Protein sequences, listed by entry. Tags and fused reporters are not part of them. Lines headed by an entry give the natural chain unless they say otherwise; changes in a name come on top.
UniProt P48048: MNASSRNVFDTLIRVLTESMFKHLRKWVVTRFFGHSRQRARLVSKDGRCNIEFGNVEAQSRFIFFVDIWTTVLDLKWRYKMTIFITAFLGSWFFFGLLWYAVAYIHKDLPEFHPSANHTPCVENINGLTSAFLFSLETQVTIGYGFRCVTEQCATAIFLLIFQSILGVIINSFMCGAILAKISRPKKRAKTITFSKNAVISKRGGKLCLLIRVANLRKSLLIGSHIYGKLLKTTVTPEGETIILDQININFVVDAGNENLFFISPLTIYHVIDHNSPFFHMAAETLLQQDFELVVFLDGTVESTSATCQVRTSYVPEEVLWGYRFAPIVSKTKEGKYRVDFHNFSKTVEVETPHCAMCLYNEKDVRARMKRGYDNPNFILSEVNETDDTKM

Row | Compound | IC50 [nM]
1 | C[C@@H]1Cc2cc([C@@H]3CN4CCN(C(=O)C5CCc6nc(-n7cnnn7)ccc65)C[C@H]4CO3)ccc2C(=O)O1 (single isomer, unassigned) [Example 1A] | 340
2 | C[C@@H]1Cc2cc([C@@H]3CN4CCN(C(=O)C5CCc6nc(-n7cnnn7)ccc65)C[C@H]4CO3)ccc2C(=O)O1 (single isomer, unassigned) [Example 1B] | > 1000
3 | C[C@@H]1Cc2cc([C@H]3CN4CCN(C(=O)C5CCc6nc(-n7cnnn7)ccc65)C[C@H]4CO3)ccc2C(=O)O1 (single isomer, unassigned) [Example 1C] | 310
4 | C[C@@H]1Cc2cc([C@H]3CN4CCN(C(=O)C5CCc6nc(-n7cnnn7)ccc65)C[C@H]4CO3)ccc2C(=O)O1 (single isomer, unassigned) [Example 1D] | > 1000
5 | C[C@@H]1Cc2cc([C@H]3CN4CCN(C(=O)C5CCc6nc(-n7cnnn7)ccc65)CC4CO3)ccc2C(=O)O1 (single isomer, unassigned) [Example 1E] | 570
6 | C[C@@H]1Cc2cc([C@H]3CN4CCN(C(=O)C5CCc6nc(-n7cnnn7)ccc65)C[C@H]4CO3)ccc2C(=O)O1 (single isomer, unassigned) [Example 1F] | 760
7 | C[C@H]1Cc2cc([C@@H]3CN4CCN(C(=O)C5CCc6nc(-n7cnnn7)ccc65)C[C@H]4CO3)ccc2C(=O)O1 (single isomer, unassigned) [Example 1G] | 350
8 | C[C@H]1Cc2cc([C@@H]3CN4CCN(C(=O)C5CCc6nc(-n7cnnn7)ccc65)C[C@H]4CO3)ccc2C(=O)O1 (single isomer, unassigned) [Example 1H] | > 1000
9 | C[C@H]1Cc2cc([C@@H]3CN4CCN(C(=O)C5CCc6nc(-n7cnnn7)ccc65)CC4CO3)ccc2C(=O)O1 (single isomer, unassigned) [Example 1I] | 380
10 | C[C@H]1Cc2cc([C@@H]3CN4CCN(C(=O)C5CCc6nc(-n7cnnn7)ccc65)CC4CO3)ccc2C(=O)O1 (single isomer, unassigned) [Example 1J] | 450
11 | C[C@H]1Cc2cc([C@H]3CN4CCN(C(=O)C5CCc6nc(-n7cnnn7)ccc65)C[C@H]4CO3)ccc2C(=O)O1 (single isomer, unassigned) [Example 1K] | 350
12 | C[C@H]1Cc2cc([C@H]3CN4CCN(C(=O)C5CCc6nc(-n7cnnn7)ccc65)C[C@H]4CO3)ccc2C(=O)O1 (single isomer, unassigned) [Example 1L] | > 1000
13 | O=C1OCCc2cc([C@@H]3CN4CCN(C(=O)C5CCc6nc(-n7cnnn7)ccc65)C[C@H]4CO3)ccc21 (single isomer, unassigned) [Example 17A] | 190
14 | O=C1OCCc2cc([C@H]3CN4CCN(C(=O)C5CCc6nc(-n7cnnn7)ccc65)C[C@@H]4CO3)ccc21 (some centres unmarked) [Example 16] | 390
15 | C[C@@H]1Cc2cc([C@H]3CN4CCN(C(=O)C5CCc6cc(-n7cnnn7)ncc65)C[C@H]4CO3)ccc2C(=O)O1 (some centres unmarked) [Example 46] | 540
16 | C[C@@H]1Cc2cc([C@@H]3CN4CCN(C(=O)C5CCc6cc(-n7cnnn7)ncc65)C[C@H]4CO3)ccc2C(=O)O1 (some centres unmarked) [Example 47] | 630
17 | C[C@@H]1Cc2cc([C@@H]3CN4CCN(C(=O)C5CCc6cc(-n7cnnn7)ncc65)C[C@H]4CO3)ccc2C(=O)O1 (some centres unmarked) [Example 48] | 630

Row | Compound | IC50 [nM]
18 | O=C1OCc2cc([C@@H]3CN4CCN(C(=O)C5CCc6cc(-n7cnnn7)ncc65)C[C@H]4CO3)ccc21 (some centres unmarked) [Example 53] | 810
19 | O=C1OCc2cc([C@@H]3CN4CCN(C(=O)C5CCc6cc(-n7cnnn7)ncc65)C[C@H]4CO3)ccc21 (some centres unmarked) [Example 54] | 440
20 | O=C1OCc2cc([C@H]3CN4CCN(C(=O)C5CCc6cc(-n7cnnn7)ncc65)C[C@H]4CO3)ccc21 (some centres unmarked) [Example 56] | 220
21 | O=C1OCc2cc([C@H]3CN4CCN(C(=O)C5CCc6nc(-n7cnnn7)ccc65)C[C@H]4CO3)ccc21 (some centres unmarked) [Example 58] | 420
22 | C[C@H]1Cc2cc(C3CN4CCN(C(=O)C5CCc6nc(-n7cnnn7)ccc65)CC4(C)CO3)ccc2C(=O)O1 (some centres unmarked) [Example 60] | 600
23 | Cc1c(C2CN3CCN(C(=O)C4CCc5nc(-n6cnnn6)ccc54)CC3CCO2)ccc2c1COC2=O (centres unmarked) [Example 61] | 140
24 | Cc1c(C2CN3CCN(C(=O)C4CCc5nc(-n6cnnn6)ccc54)CC3CCO2)ccc2c1COC2=O (centres unmarked) [Example 62] | 450
25 | CCc1c([C@H]2CN3CCN(C(=O)C4CCc5nc(-n6cnnn6)ccc54)C[C@H]3CO2)ccc2c1COC2=O (some centres unmarked) [Example 69] | 790
26 | O=C1OCCc2c1ccc([C@@H]1CN3CCN(C(=O)C4CCc5nc(-n6cnnn6)ccc54)C[C@H]3CO1)c2F (some centres unmarked) [Example 78] | 500
27 | C[C@H]1Cc2c(ccc([C@@H]3CN4CCN(C(=O)C5CCc6nc(-n7cnnn7)ccc65)C[C@@H]4CO3)c2F)C(=O)O1 (some centres unmarked) [Example 84] | 570
28 | C[C@H]1Cc2c(ccc([C@@H]3CN4CCN(C(=O)C5CCc6nc(-n7cnnn7)ccc65)C[C@@H]4CO3)c2F)C(=O)O1 (some centres unmarked) [Example 85] | 600
29 | C[C@H]1Cc2c(ccc([C@H]3CN4CCN(C(=O)C5CCc6nc(-n7cnnn7)ccc65)C[C@H]4CO3)c2F)C(=O)O1 (some centres unmarked) [Example 87] | 590
30 | C[C@H]1Cc2c(ccc([C@@H]3CN4CCN(C(=O)C5CCc6nc(-n7cnnn7)ccc65)C[C@H]4CO3)c2F)C(=O)O1 (some centres unmarked) [Example 88] | 330
31 | C[C@@H]1Cc2c(ccc([C@@H]3CN4CCN(C(=O)C5CCc6nc(-n7cnnn7)ccc65)C[C@@H]4CO3)c2F)C(=O)O1 (some centres unmarked) [Example 89] | 600
32 | C[C@@H]1Cc2c(ccc([C@@H]3CN4CCN(C(=O)C5CCc6nc(-n7cnnn7)ccc65)C[C@H]4CO3)c2F)C(=O)O1 (some centres unmarked) [Example 90] | 280
33 | Cc1c([C@H]2CN3CCN(C(=O)C4CCc5cc(-n6cnnn6)ncc54)C[C@H]3CN2)ccc2c1COC2=O (some centres unmarked) [Example 101] | 550

target: Kir1.1 (ROMK1) (Homo sapiens (Human), UniProt P48048); test: Electrophysiology Assay (whole cell voltage clamp, IonWorks Quattro); type: cell-based; conditions: Chinese hamster ovary cells stably expressing Kir1.1; block during voltage step to 0 mV

Row | Compound | IC50 [nM]
34 | C[C@@H]1Cc2cc([C@@H]3CN4CCN(C(=O)C5CCc6nc(-n7cnnn7)ccc65)C[C@H]4CO3)ccc2C(=O)O1 (single isomer, unassigned) [Example 1A] | 190
35 | C[C@@H]1Cc2cc([C@@H]3CN4CCN(C(=O)C5CCc6nc(-n7cnnn7)ccc65)C[C@H]4CO3)ccc2C(=O)O1 (single isomer, unassigned) [Example 1B] | > 1000
36 | C[C@@H]1Cc2cc([C@H]3CN4CCN(C(=O)C5CCc6nc(-n7cnnn7)ccc65)C[C@H]4CO3)ccc2C(=O)O1 (single isomer, unassigned) [Example 1D] | > 1000
37 | C[C@@H]1Cc2cc([C@H]3CN4CCN(C(=O)C5CCc6nc(-n7cnnn7)ccc65)CC4CO3)ccc2C(=O)O1 (single isomer, unassigned) [Example 1E] | 200
38 | C[C@H]1Cc2cc([C@@H]3CN4CCN(C(=O)C5CCc6nc(-n7cnnn7)ccc65)C[C@H]4CO3)ccc2C(=O)O1 (single isomer, unassigned) [Example 1H] | > 1000
39 | C[C@H]1Cc2cc([C@@H]3CN4CCN(C(=O)C5CCc6nc(-n7cnnn7)ccc65)CC4CO3)ccc2C(=O)O1 (single isomer, unassigned) [Example 1I] | 120
40 | C[C@H]1Cc2cc([C@@H]3CN4CCN(C(=O)C5CCc6nc(-n7cnnn7)ccc65)CC4CO3)ccc2C(=O)O1 (single isomer, unassigned) [Example 1J] | 100
41 | C[C@H]1Cc2cc([C@H]3CN4CCN(C(=O)C5CCc6nc(-n7cnnn7)ccc65)C[C@H]4CO3)ccc2C(=O)O1 (single isomer, unassigned) [Example 1L] | > 1000
42 | O=C1OCCc2cc([C@@H]3CN4CCN(C(=O)C5CCc6nc(-n7cnnn7)ccc65)C[C@H]4CO3)ccc21 (single isomer, unassigned) [Example 17A] | 100
43 | O=C1OCCc2cc([C@H]3CN4CCN(C(=O)C5CCc6nc(-n7cnnn7)ccc65)C[C@@H]4CO3)ccc21 (some centres unmarked) [Example 16] | 390
44 | C[C@@H]1Cc2cc([C@H]3CN4CCN(C(=O)C5CCc6cc(-n7cnnn7)ncc65)C[C@H]4CO3)ccc2C(=O)O1 (some centres unmarked) [Example 46] | 540
45 | O=C1OCc2cc([C@@H]3CN4CCN(C(=O)C5CCc6cc(-n7cnnn7)ncc65)C[C@H]4CO3)ccc21 (some centres unmarked) [Example 53] | 110
46 | O=C1OCc2cc([C@@H]3CN4CCN(C(=O)C5CCc6cc(-n7cnnn7)ncc65)C[C@H]4CO3)ccc21 (some centres unmarked) [Example 54] | 110
47 | O=C1OCc2cc([C@H]3CN4CCN(C(=O)C5CCc6cc(-n7cnnn7)ncc65)C[C@H]4CO3)ccc21 (some centres unmarked) [Example 55] | 60
48 | O=C1OCc2cc([C@H]3CN4CCN(C(=O)C5CCc6cc(-n7cnnn7)ncc65)C[C@H]4CO3)ccc21 (some centres unmarked) [Example 56] | 110
49 | O=C1OCc2cc([C@@H]3CN4CCN(C(=O)C5CCc6nc(-n7cnnn7)ccc65)C[C@H]4CO3)ccc21 (some centres unmarked) [Example 57] | 90
50 | O=C1OCc2cc([C@H]3CN4CCN(C(=O)C5CCc6nc(-n7cnnn7)ccc65)C[C@H]4CO3)ccc21 (some centres unmarked) [Example 58] | 150
51 | C[C@H]1Cc2cc(C3CN4CCN(C(=O)C5CCc6nc(-n7cnnn7)ccc65)CC4(C)CO3)ccc2C(=O)O1 (some centres unmarked) [Example 59] | 230
52 | C[C@H]1Cc2cc(C3CN4CCN(C(=O)C5CCc6nc(-n7cnnn7)ccc65)CC4(C)CO3)ccc2C(=O)O1 (some centres unmarked) [Example 60] | 330
53 | Cc1c(C2CN3CCN(C(=O)C4CCc5nc(-n6cnnn6)ccc54)CC3CCO2)ccc2c1COC2=O (centres unmarked) [Example 61] | 190
54 | Cc1c(C2CN3CCN(C(=O)C4CCc5nc(-n6cnnn6)ccc54)CC3CCO2)ccc2c1COC2=O (centres unmarked) [Example 62] | 130
55 | CCc1c([C@H]2CN3CCN(C(=O)C4CCc5nc(-n6cnnn6)ccc54)C[C@H]3CO2)ccc2c1COC2=O (some centres unmarked) [Example 69] | 630
56 | O=C1OCCc2c1ccc([C@@H]1CN3CCN(C(=O)C4CCc5nc(-n6cnnn6)ccc54)C[C@H]3CO1)c2F (some centres unmarked) [Example 78] | 160
57 | C[C@H]1Cc2c(ccc([C@@H]3CN4CCN(C(=O)C5CCc6nc(-n7cnnn7)ccc65)C[C@@H]4CO3)c2F)C(=O)O1 (some centres unmarked) [Example 84] | 100
58 | C[C@H]1Cc2c(ccc([C@@H]3CN4CCN(C(=O)C5CCc6nc(-n7cnnn7)ccc65)C[C@H]4CO3)c2F)C(=O)O1 (some centres unmarked) [Example 88] | 100
59 | Cc1c([C@H]2CN3CCN(C(=O)C4CCc5cc(-n6cnnn6)ncc54)C[C@H]3CN2)ccc2c1COC2=O (some centres unmarked) [Example 101] | 230
